# Binding of CDR-mutated scFvs to a peptide of the spike HR2 region

From the AlphaSeq antibody data of Engelhart et al. 2022 (doi:10.1038/s41597-022-01779-4), copy in the FLAb collection.

Target: peptide PDVDLGDISGINAS, taken from heptad repeat 2 (HR2) of SARS-CoV-2 spike.

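The library (AAYL50) carries one to three amino acid substitutions per variant, with no insertions or deletions. The assay is AlphaSeq: two haploid yeast populations carry antibody and antigen on their surface. After mating in shaken culture at 30 °C for 16 h, diploids were selected and their barcode pairs sequenced. Read counts were normalised to the haploid input and turned into Kd by a linear fit to BCL2-family pairs of known affinity, for each replicate. Mating was done three times.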

Ab-14 is the parent antibody, in scFv form: VH, then three GGGGS repeats, then VL. The heavy chain is unchanged in all variants.
VH: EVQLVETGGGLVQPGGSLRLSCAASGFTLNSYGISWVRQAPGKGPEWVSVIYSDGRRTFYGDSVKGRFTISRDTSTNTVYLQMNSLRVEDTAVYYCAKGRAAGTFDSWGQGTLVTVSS
VL: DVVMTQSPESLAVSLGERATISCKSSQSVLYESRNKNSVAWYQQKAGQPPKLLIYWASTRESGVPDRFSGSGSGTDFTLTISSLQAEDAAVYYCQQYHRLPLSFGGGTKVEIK

Changes read parent residue, position, new residue, counted from the first residue of the VL shown. Scale: log10 of Kd in nM, estimated from mating counts; low values are strong binders. A mean of the replicates is given; it leaves out those without a signal. "not detected" marks a missing value. The strain was present, yet no cells mated with the target were sequenced in any replicate, which points to weak or no binding.

changes	mean, log10 nM	seen in	signal with controls
S33Q R34E Y97Q	0.08	3/3	0/9
R34K W56F R99F	3.29	3/3	4/9
K24W V29H W56L	2.61	3/3	0/9
E32T N37E S58D	1.31	3/3	3/9
R60Q E61A L102N	not detected	0/3	0/9
R34F E61P	1.45	3/3	0/9
L30N Q95E Q96H	3.47	1/3	0/9
Q27V R60C S103Y	3.18	1/3	5/9
Q27M S38D R99A	1.84	3/3	0/9
S26Q A40F T59C	not detected	0/3	0/9
S25C V39M A57I	not detected	0/3	0/9
S28M N35C S62E	1.47	3/3	3/9
V39K L100G P101D	not detected	0/3	0/9
S25N A40K P101C	not detected	0/3	0/9
S26G Y97P S103T	not detected	0/3	0/9
S28L S33D T59H	1.98	3/3	1/9
R34W A57S Y97W	not detected	0/3	0/9
S25I E61C L102F	1.06	3/3	2/9
S25E R34S V39H	not detected	0/3	1/9
A57V L100R L102Q	4.69	2/3	3/9
Y31L Q96H R99G	0.43	3/3	1/9
L30E H98N R99L	1.84	3/3	4/9
N35C K36T L102E	not detected	0/3	0/9
R34F N37A S62M	1.90	3/3	4/9
S28D A57V T59S	4.14	3/3	2/9
L30V A40L H98S	not detected	0/3	2/9
E32D T59W Q96L	3.83	1/3	1/9
S25P L30I K36E	2.43	3/3	2/9
Y31V K36R E61F	0.90	3/3	4/9
S38I A57V Q95V	not detected	0/3	1/9
N35R T59F E61I	not detected	0/3	1/9
S33T Y97R H98Y	3.50	1/3	1/9
S26K E32W Q95R	2.40	3/3	6/9
R60F Y97L R99A	4.03	1/3	4/9
N35L T59V	0.67	3/3	5/9
S26E T59Q R99P	2.04	3/3	3/9
V29N Y31K H98S	0.94	3/3	5/9
Q27M R99S	1.43	3/3	3/9
Q27V V39K L100G	not detected	0/3	1/9
E32K V39I T59P	5.15	2/3	4/9
Q27R S62Y	1.04	3/3	0/9
K24F S58Y H98G	2.31	1/3	1/9
K36V W56R P101S	3.87	1/3	0/9
L30Q A57Y E61S	5.74	1/3	2/9
S25D Y31E L100R	2.25	3/3	1/9
R34C L100C	4.01	2/3	2/9

The 6 strongest on average among those seen in every replicate, once more:

changes	mean, log10 nM	seen in	signal with controls
S33Q R34E Y97Q	0.08	3/3	0/9
Y31L Q96H R99G	0.43	3/3	1/9
N35L T59V	0.67	3/3	5/9
Y31V K36R E61F	0.90	3/3	4/9
V29N Y31K H98S	0.94	3/3	5/9
Q27R S62Y	1.04	3/3	0/9

Nonspecific signal, from three strains lacking the peptide, appeared in 18% of pairings of library AAYL50, centred on 4.19 (5% of these signals below 2.99); values are not corrected for it. Also given: how often the same scFv was detected with the empty control strains. Parent in this assay: reference entry 0.65, copy in this library 1.68.